## Binding of CDR-mutated scFvs to a peptide of the spike HR2 region

Reference: Li et al. 2023, doi:10.1038/s41467-023-39022-2. File: FLAb, binding data.

Antigen: PDVDLGDISGINAS, a 14-residue peptide of the SARS-CoV-2 spike HR2 region.

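The parent was found by panning a naive human phage display library on the peptide. Designed CDR sequences, proposed from the first random library and measured here. Several design methods are mixed in this list. In AlphaSeq, yeast of one mating type display the scFv and yeast of the other type display the target. Pairs that bind mate more often; barcode pairs of the diploids are counted by sequencing. Each replicate has its own calibration line, from reference interactions of the BCL2 family. The assay was run in six technical replicates.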

The variants keep the light chain, the linker and the frameworks of Ab-14 (scFv order VH, a (GGGGS)3 linker, VL).
VH: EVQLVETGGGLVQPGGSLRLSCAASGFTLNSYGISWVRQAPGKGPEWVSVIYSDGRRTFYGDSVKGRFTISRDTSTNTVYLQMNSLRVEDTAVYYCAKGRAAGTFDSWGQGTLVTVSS
VL: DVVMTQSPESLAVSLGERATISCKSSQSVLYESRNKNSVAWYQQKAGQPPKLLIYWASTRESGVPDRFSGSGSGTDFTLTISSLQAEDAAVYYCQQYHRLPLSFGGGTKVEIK

Variants are written as CDR1, CDR2 and CDR3 of the heavy chain (limits as in the source). Parent: GFTLNSYGIS, VIYSDGRRTFYGDSVK, GRAAGTFDS. This list holds designs with at most six substitutions. Kd is apparent (estimated from mating counts) and averaged on the log scale over replicates with a signal. Smaller is tighter. "nd" means that the variant was in the library but no mating with the target was seen in any replicate; the authors take this as a sign of poor binding, and no number exists. Entries are sorted by rising average, undetected variants last. Where one sequence has several entries in the source, the replicates are pooled.

- GFTLNEYGIS, VIYSDGRRTFYADSVK, GRLAGTFDS: 650 pM (6 of 6 replicates)
- GFELNSYGIS, VIYSDGRRTFYADSVK, GQTAGTFDT: 730 pM (4 of 6 replicates)
- GFSLNEYGIS, VIYSDGRRTFYHDSVK, GRQAGTFDS: 800 pM (6 of 6 replicates)
- GFTLNEYGIS, VIYSDGRRTFYGDSVK, GREAGTFDK: 870 pM (6 of 6 replicates)
- GFDLNSYGIS, VIYSDGRRTFYGDSVK, GKVAGTFDQ: 910 pM (6 of 6 replicates)
- GFDLNSYGIS, VIYSDGRRTAYSDSVK, GRAAGTFDS: 990 pM (6 of 6 replicates)
- GFTLNSYGIS, VIYSDGRRTFYDDSVK, GQEAGTFDT: 990 pM (6 of 6 replicates)
- KFKLNEYGIS, VIYSDGRRTFYGDSVK, GRTAGTFDS: 1.2 nM (6 of 6 replicates)
- GFELNSYGIS, VIYSDGRRTFYGDSVK, GKMAGTFDT: 1.6 nM (5 of 6 replicates)
- GFDLNSYGIS, VIYSDGRRTFYGDRVK, GQEAGTFDS: 2.0 nM (6 of 6 replicates)
- GFTLNEYGIS, VIYSDGRRTFYNDSVK, GRFAGTFDS: 3.0 nM (1 of 6 replicates)
- GFDLNSYGIS, VIYSDGRRTFYLDSVK, GKTAGTFDS: 3.6 nM (6 of 6 replicates)
- GFDLNMYGIS, VIYSDGRRKFYGDSVK, GSSAGTFDS: 3.6 nM (6 of 6 replicates)
- GFTLNEYGIS, VIYSDGRRTFYGDSVK, GRAAGTFDK: 5.5 nM (6 of 12 replicates)
- GFELNEYGIS, VIYSDGRRTFYQDSVK, GEAAGTFDS: 5.7 nM (5 of 6 replicates)
- GFTLNSYGIS, VIYSDGRRTFYGDSVK, GRSAGTFLL: 11 nM (6 of 6 replicates)
- GFPLNEYGIS, VIYADGRRTFYGDSVK, GNAAGTFDS: 17 nM (6 of 6 replicates)
- GFNLNSYGIS, VIYSDGRRTFYIDSVK, GRQAGTFDT: 26 nM (6 of 6 replicates)
- GFDLNSYGIS, VGYSDGRRTFYGDSVK, GRAAGWFNV: 28 nM (1 of 6 replicates)
- GFTLNSYGIS, VIYSDGKRTFYIDSVK, GRVAGTFWS: nd (0 of 6 replicates)
- GFDLNSYGIS, VIYSDGRRTFYGDQVK, GRAAGAFDS: nd (0 of 6 replicates)
- GFTLNDYGIS, VIYSDGRRTFYGDSVK, GRAAGTFWI: nd (0 of 6 replicates)
- GFQLNSYGIS, VIYSDGRRTFYGDSVK, GHAAGTFDS: nd (0 of 6 replicates)
- GFTLNSYGIS, VIYSDGRRTFYGDSVK, WRAAGTFDK: nd (0 of 6 replicates)
- GFTLNNYGIS, VIYAYGRRTFYGDSVK, GRAAGTNNS: nd (0 of 6 replicates)
- KFDLNSYGIS, VIYSDGRRTFYGDSVK, GWAAGTFDS: nd (0 of 6 replicates)
- GFDLNSYGIS, VIYSDGRRTFYGQSVK, GRAAGWFNS: nd (0 of 6 replicates)
- GFTLNSYGIS, VIYSDGRRTFYGDSVK, GRAAPWADS: nd (0 of 6 replicates)
- GFWLNEYGIS, VIYSDGRRTFYHDSVK, GRAAVTFDT: nd (0 of 6 replicates)
- GFTLNDYGIS, VIYSDGRRTFYGDSVK, GRAAGTFFI: nd (0 of 6 replicates)
- GFTLNDYGLS, VIYSDGRRTFYGDSAK, SRAALTFIS: nd (0 of 6 replicates)
- GFTLNSYGIS, VIYSDGRRTFYGDSVK, IRDMGTFDS: nd (0 of 6 replicates)
- GFSLNSYGIS, VIYSDGHRTFYVDSVK, GRTAGTFDS: nd (0 of 6 replicates)
- GFTLNSYGIS, VIYSDGRRTFYQDSVK, GQVAGKFDS: nd (0 of 6 replicates)

The range of this assay differs from that of the first round, and the authors advise against merging the two. In the paper, a design with two or fewer of six values counts as a poor binder. As a blank, each scFv also met three strains without target: over all heavy chain designs, 1% of these pairings were detected, typically at 120 nM and seldom below 7.0 nM. The parent sequence was in this pool as ten entries: three were never detected, three once, and four in most replicates, with averages from 2.2 nM to 240 nM.